# scFv variants of Ab-14 (light chain) against a SARS-CoV-2 spike peptide

From the AlphaSeq antibody data of Li et al. 2023 (doi:10.1038/s41467-023-39022-2), copy in the FLAb collection.

Antigen: PDVDLGDISGINAS, a 14-residue peptide of the SARS-CoV-2 spike HR2 region.

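Designed CDR sequences, proposed from the first random library and measured here. Their group label is 14L_En_Gen (En: ensemble of fine-tuned language models; Gen: genetic algorithm). The scFvs were displayed on barcoded MATa yeast, the peptide on MATalpha yeast. Mating (16 h, 30 °C) was followed by selection of diploids and sequencing of their barcodes. The ratio of observed to expected reads was calibrated, replicate by replicate, on BCL2-family standards whose Kd was known from biolayer interferometry. The assay was run in six technical replicates.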

Parent: Ab-14, a human scFv built as VH, a 15-residue (Gly4Ser)3 linker, VL. Only the CDRs of the light chain vary.
VH: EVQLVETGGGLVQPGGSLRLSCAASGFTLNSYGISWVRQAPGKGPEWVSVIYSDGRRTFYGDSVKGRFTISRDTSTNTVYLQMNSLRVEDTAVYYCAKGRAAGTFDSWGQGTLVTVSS
VL: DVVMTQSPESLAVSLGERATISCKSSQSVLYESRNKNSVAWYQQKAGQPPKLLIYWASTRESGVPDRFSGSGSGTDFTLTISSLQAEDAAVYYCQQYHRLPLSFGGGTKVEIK

Each variant is given by its three light chain CDRs, as the data file delimits them; those of the parent are KSSQSVLYESRNKNSVA, WASTRES, QQYHRLPLS.
Values are log10 of the apparent Kd in nM; lower means stronger binding.
A mean of the replicates is given; it leaves out those without a signal.
An entry "nd" has no value in the source: the pair was not observed among the diploids in that replicate. This suggests poor binding but is not conclusive.
The authors' rule: three or more of the six replicates give a measured affinity, fewer mean a poor binder.
As a blank, each scFv also met three strains without target: over all light chain designs, 4% of these pairings were detected, typically at 2.64 and seldom below 1.59. Also given: how often the same scFv was detected with the empty control strains, with their mean in brackets.
Values of this round are not directly comparable with the first-round values of the same sequences.
Of ten entries with the parent sequence, four were seen in most replicates (averages 0.34 to 2.37), three in one and three in none, so single entries are noisy.

CDR-L1	CDR-L2	CDR-L3	log10 Kd, replicates	log10 Kd (nM), mean	empty controls
MISQLYNMGSFAINSVA	QASVRNE	QQYDRLPLQ	1.48 / 0.59 / 0.84 / 0.53 / 0.77 / 1.48	0.95	1 of 18 (1.75)
IVSQLMLWGYHAKNSIA	EAQTRDN	QQYERLPLF	1.49 / 1.93 / 1.53 / 1.41 / 1.84 / 1.97	1.70	0 of 18
MVTQMAMTGMKNKRSVA	NAETREY	QQYHRLPLI	1.32 / 1.38 / 0.63 / 0.42 / 0.71 / 0.88	0.89	0 of 18
MISQLYNMGQFAINSVA	QASIRNS	QQYDRLPLI	2.02 / 1.61 / 1.36 / 1.11 / 2.19 / 1.34	1.60	0 of 18
IVSQLMLWGMHAKNSIA	EAETRLN	QQYDRLPLF	0.58 / 0.19 / 1.71 / 0.77 / 1.94 / 0.91	1.02	0 of 18
HIGLATMSQETVRNSVA	NNSTRES	QQYDRLPLS	1.27 / 1.09 / 0.58 / 0.99 / 1.29 / 2.19	1.24	0 of 18
TISQMTSLFSQSINNVA	EVSMREE	QQYDRLPLM	0.80 / 1.15 / 0.93 / 0.89 / 1.20 / 1.74	1.12	1 of 18 (2.46)
KLMSVTGTEKVRGNNVA	EMETREK	QQYNRLPLS	1.61 / 1.38 / 0.91 / 0.89 / 1.59 / 1.40	1.30	0 of 18
KIIDMSLVSMRAHNSIA	DNDMRNY	QQYDRLPLS	0.38 / 0.27 / 0.29 / -0.12 / 0.20 / 0.21	0.20	1 of 18 (2.61)
IVSQLMLWGWHAKNSIA	EAQTRLN	QQYDRLPLE	0.03 / -0.09 / -0.34 / -0.32 / -0.26 / 0.01	-0.16	1 of 18 (2.06)
QIYQAMHTLSQMKDNVA	DVNERGD	QQYYRLPLS	0.75 / 0.74 / 0.68 / 0.35 / 0.84 / 0.67	0.67	0 of 18
KLVQFMNRGTHHTSNIA	DAANRID	QQYARLPLA	0.74 / 0.93 / 0.50 / 0.25 / 0.26 / 1.28	0.66	0 of 18
KVSEFMRGLMGRKDSIA	DNETRNN	QQYDRLPLS	nd / 1.75 / 1.31 / 1.64 / 1.34 / 1.91	1.59	0 of 18
KLSMITGHMSTAKNNVA	EMVTREE	QQYNRLPLS	1.70 / 1.41 / 0.81 / 0.97 / 1.07 / 1.37	1.22	0 of 18
KISMLINQTFEQGNNVA	EMATREN	QQYHRLPLS	1.69 / 1.50 / 2.33 / nd / 1.75 / 2.03	1.86	1 of 18 (2.50)
MISQLYNMGSFAINSVA	QASVRNE	QQYDRLPLI	nd / 0.25 / 1.05 / 0.33 / 1.57 / 1.18	0.87	1 of 18 (1.33)
SLGLVTMLEEYARNNVA	NNSTREE	QQYDRLPLS	1.96 / 2.70 / nd / 3.67 / 4.21 / 2.28	2.96	2 of 18 (2.07)
KLSGLMASSKFAKDNVA	ENNTREV	QQYDRLPLS	nd / nd / 0.98 / 1.51 / 2.61 / 2.38	1.87	1 of 18 (1.52)
MVNGIMDHLSKQTNNVA	ETTTRES	QQYDRLPLT	0.87 / 1.32 / 0.89 / 0.99 / 1.33 / 1.51	1.15	1 of 18 (3.64)
TISQMTSLFSQSINNVA	EVSMREE	QQYDRLPLQ	0.89 / 0.62 / 0.67 / 0.36 / 0.38 / 0.43	0.56	0 of 18
KVMYFNEQVSLKGSNVA	DNETRER	QQYFRLPLS	-0.02 / -0.05 / -0.20 / -0.31 / -0.25 / 0.10	-0.12	1 of 18 (2.79)
TIGQTLMQGIRNRSNVA	EVSERLN	QQYDRLPLI	1.09 / 1.24 / 1.95 / nd / 0.98 / 0.89	1.23	1 of 18 (2.38)
KIGMTLNMLEHKQNNVA	DLVERGN	QQYFRLPLS	0.76 / 0.56 / 0.60 / 0.68 / 1.05 / 1.03	0.78	0 of 18
TLYGLSNSMSINKDSVA	EMTTRED	QQYDRLPLI	nd / nd / nd / 2.23 / nd / nd	2.23	0 of 18
MMSQVTGMELRQQNNVA	QTTTRES	QQYDRLPLV	0.98 / 1.00 / 1.04 / 0.76 / 1.10 / 1.01	0.98	4 of 18 (2.75)
MLSEMLHMLGTKKNSIA	DLVMRAN	QQYHRLPLS	2.22 / 1.89 / 2.26 / 1.25 / 1.92 / 2.23	1.96	0 of 18
IVSQLMLWGYHAKNSIA	EAETRPN	QQYDRLPLF	nd / nd / nd / 2.57 / nd / nd	2.57	0 of 18
KIGFTLNMLEHKQNNVA	DLVTREQ	QQYHRLPLS	0.65 / 1.20 / 1.09 / 1.42 / 1.10 / 1.22	1.11	0 of 18
KLSMVTGHMSVAKNNVA	EMETRLK	QQYNRLPLS	0.08 / -0.13 / 0.27 / -0.17 / -0.10 / 0.06	0.00	0 of 18
TISQMTSLFSQSINNVA	EVSMREK	QQYDRLPLM	2.10 / 1.68 / 1.82 / 2.06 / 1.35 / 2.28	1.88	0 of 18
HITMGMYVKGRHHSSIA	QAETRAK	QQYDHLPLI	nd / 1.87 / 1.75 / 1.30 / nd / nd	1.64	0 of 18
MMSQVQGQGTRHRNNVA	QTETREP	QQYDRLPLI	1.22 / 0.59 / 0.75 / 0.37 / 0.69 / 0.97	0.76	0 of 18

The closing 4 entries, repeated:

CDR-L1,CDR-L2,CDR-L3,"log10 Kd, replicates","log10 Kd (nM), mean",empty controls
KLSMVTGHMSVAKNNVA,EMETRLK,QQYNRLPLS,0.08 / -0.13 / 0.27 / -0.17 / -0.10 / 0.06,0.00,0 of 18
TISQMTSLFSQSINNVA,EVSMREK,QQYDRLPLM,2.10 / 1.68 / 1.82 / 2.06 / 1.35 / 2.28,1.88,0 of 18
HITMGMYVKGRHHSSIA,QAETRAK,QQYDHLPLI,nd / 1.87 / 1.75 / 1.30 / nd / nd,1.64,0 of 18
MMSQVQGQGTRHRNNVA,QTETREP,QQYDRLPLI,1.22 / 0.59 / 0.75 / 0.37 / 0.69 / 0.97,0.76,0 of 18